Bioassay records deposited in PubChem BioAssay by Broad Institute.
RAD54 branch – inhibitors of human RAD54 branch migration, primary screen, biochemical, fluorescence, single point; 360,000 compounds, 0.14% hits; inhibition, % at 10.4 µM; DNA repair and recombination protein RAD54-like (Homo sapiens), Q92698; RAD54 Holliday junction branch migration, FAM/BHQ fluorescence;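 active = mean normalized replicate activity at least 40 and at least half of replicates scoring 40 or more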;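 note: 0% = median of neutral control wells and 100% = median of positive control wells; inhibitors cause a drop in the FAM fluorescence signal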
GSIS activator – GLuc luminescence reporter in INS-1E cells, primary screen for activators of glucose-dependent secretion of insulin. INS-1E GLuc reporter insulin secretion, 2-3 h. activation, % at 16.6 µM. 370,000 compounds, 0.61% hits. AID 743287, 2014;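 active = lowest replicate activation of at least 40%, so every replicate reaches that level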;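 note: 0% = median of neutral control wells and 100% = median of IBMX positive control wells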
UUG fidelity – modulators of start codon recognition fidelity in yeast. S. cerevisiae UUG-firefly luciferase reporter, luminescence/redox ratio. activity score, % at 18.7 µM. 0.13% of 350,000 active. AID 602363;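 active = replicate mean at a twofold rise or more, about +100% in these data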;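 also: firefly luciferase made from a UUG start codon reports start codon fidelity; reporter light over untreated wells divided by growth signal over untreated wells; some hits fall short of that in this replicate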
RAD52 anneal inh – RAD52 DNA annealing inhibitors, primary screen, biochemical, FRET, single point, set 2 | DNA repair protein RAD52 homolog (Homo sapiens), P43351 | recombinant RAD52 DNA annealing, FRET fluorescence | inhibition, % at 18.7 µM | 360,000 compounds, 0.46% hits | AID 651710, 2012;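 active = every replicate showing at least 50% inhibition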
PglD inh – C. jejuni PglD acetyltransferase inhibitors, primary screen, biochemical, DTNB colorimetric, single point; 360,000 compounds, 0.098% hits; purified PglD enzyme, DTNB colorimetric CoA detection; inhibition, % at 12.5 µM; UDP-N-acetylbacillosamine N-acetyltransferase PglD (Campylobacter jejuni); in the data active = inhibition above about 16%, passing the limit was not always enough
CASP6 VEID inh – human caspase-6 inhibitors, primary screen, biochemical, VEID-R110 fluorescence, single point, set 2 | P55212 | purified caspase-6, Z-VEID-R110 cleavage fluorescence | inhibition, % at 12.5 µM | 350,000 compounds, 0.53% hits | AID 686996, 2013;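 active = mean inhibition across replicates at least about 35%, with every replicate also reaching that limit, limit read from the data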;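 note: 0% = median of neutral control wells and 100% = no fluorescence left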
Numbers without * were called inactive; / = not tested or not shown. The list is not random: actives were taken first. Their share in the collection is about 1.5%.

Short keys: A = RAD54 branch; B = GSIS activator; C = UUG fidelity; D = RAD52 anneal inh; E = PglD inh; F = CASP6 VEID inh
O=C(NNC(=O)c1cc2cc3ccccc3nc2s1)c1cccc(C(F)(F)F)c1
  A: 5.0	B: 75.1*	C: -10.3	D: /	E: 3.0	F: /

O=C(NC1CC1)c1cc2cc3ccccc3nc2s1
  A: 1.6	B: 2.6	C: -15.2	D: -9.5	E: -4.8	F: -3.3

Cc1ccccc1OCCNc1cc(N2CC(C)NC(C)C2)ccc1[N+](=O)[O-] (configuration not stated)
  A: 12.6	B: 41.6*	C: -8.1	D: 39.9	E: -6.1	F: 0.8

O=C(C1CCN(c2ccc(N3CCOCC3)nn2)CC1)N1CCc2ccccc2C1
  A: 0.7	B: 1.3	C: -8.8	D: -7.7	E: 1.5	F: 55.9*

O=C(C1CCN(S(=O)(=O)N2CCC3(CC2)OCCO3)CC1)N1CCc2ccccc2C1
  A: -14.1	B: 4.5	C: -15.1	D: -8.5	E: -0.7	F: -0.8

O=c1cc(-c2ccc(O)cc2)oc2c(O)c(O)c(O)c(O)c12
  A: 23.8	B: 22.8	C: -1.2	D: 10.5	E: -1.7	F: 63.4*

O=c1cc(-c2ccccc2)oc2cc(O)c(O)c(O)c12
  A: 13.4	B: 5.4	C: -40.6	D: -3.8	E: 0.7	F: 43.7*

CCN(CC)S(=O)(=O)N1CCC(C(=O)NCc2ccc3c(c2)OCO3)CC1
  A: -4.5	B: 17.3	C: 24.3	D: /	E: -5.1	F: /

Cc1ccc(CS(=O)Cc2ccc(C(=O)NCc3ccccc3)o2)cc1 (configuration not stated)
  A: -3.7	B: 43.4*	C: -14.8	D: 1.6	E: -0.1	F: 5.2

Cn1c(CSCCOc2ccccc2)n[nH]c1=S
  A: -18.8	B: /	C: -26.2	D: -15.4	E: 0.9	F: 44.8*

S=c1[nH]nc(CSCCOc2ccccc2)o1
  A: /	B: /	C: /	D: -9.3	E: /	F: -5.3

OC(CNCCc1ccc(C(F)(F)F)cc1)COC(c1ccccc1)c1ccccc1 (configuration not stated)
  A: 6.8	B: 364.9*	C: -12.3	D: 11.5	E: -6.7	F: 9.4

COC(=O)CC1OCC=C2CN3CCC45C6=CC(=O)C(=O)C([N+](=O)[O-])=C6NC4C1C2CC35 (configuration not stated)
  A: 0.6	B: 5.0	C: -9.0	D: 33.5	E: -1.7	F: 69.4*

COc1ccc(N)c2c1C(=O)c1ccccc1C2=O
  A: 31.6	B: 11.6	C: -2.2	D: /	E: 11.3	F: /

COC1=C(Br)C(=O)c2nc(C)ccc2C1=O
  A: 1.5	B: 6.8	C: -4.1	D: -7.2	E: 5.4	F: 94.7*

COC1=C(N)C(=O)c2nc(C)ccc2C1=O
  A: /	B: 9.1	C: /	D: -23.2	E: /	F: 56.0*

O=C(Cn1cc(C(=O)C2CC2)c2ccccc21)Nc1ccc(F)cc1
  A: 3.4	B: 17.3	C: -15.4	D: -2.3	E: -1.2	F: 3.5

Cc1ccc(S(=O)(=O)C=CS(=O)(=O)c2ccc(C)cc2)cc1
  A: 5.3	B: 87.4*	C: 40.2	D: -3.4	E: 2.0	F: -1.4

COc1ccc(N2CCN(C(=O)CSc3ccccc3N)CC2)cc1
  A: -2.6	B: -1.1	C: -9.5	D: -21.2	E: -1.3	F: 3.8

Cc1cnc(C(=O)Nc2ccc(S(=O)(=O)NCC(C)C)cc2)cn1
  A: /	B: 2.0	C: /	D: -0.2	E: /	F: 2.3

CC1(C)CC2CC(C)(CN2C(=O)C23CCC(C)(C(=O)C2)C3(C)C)C1 (configuration not stated)
  A: /	B: 1.3	C: /	D: /	E: /	F: /

CCOc1ccc(N(CC(=O)Nc2ccccc2Cl)S(C)(=O)=O)cc1
  A: 10.2	B: -10.4	C: -18.2	D: -11.6	E: 6.8	F: 1.7

CCOc1ccc(N(CC(=O)Nc2cc(Cl)ccc2C)S(C)(=O)=O)cc1
  A: 2.7	B: -32.7	C: -23.6	D: -7.6	E: -5.3	F: 56.6*

COc1ccc(NC(=O)C[C@H]2C(=O)N(c3ccc(OC)cc3)C[C@@H]2C)cc1
  A: /	B: 6.4	C: /	D: -10.6	E: /	F: 0.3

O=C(O)CSc1nnc(Cc2ccccc2)n1Cc1ccccc1
  A: -1.0	B: 56.6*	C: -19.8	D: /	E: -0.9	F: /

COc1cccc(/C=C(\C#N)c2nc3ccc(C)cc3[nH]2)c1OCC(=O)O
  A: -5.4	B: -10.6	C: -17.2	D: -31.0	E: -5.3	F: 3.7

CCOc1cccc(/C=C(/C#N)c2nc3ccccc3[nH]2)c1OCC(=O)O
  A: -7.0	B: -4.2	C: -5.2	D: -27.8	E: -3.3	F: 45.2*

COc1ccc(NC(=O)NC[C@H]2CC[C@H]3[C@H](CN3Cc3ccccc3C(=O)O)O2)cc1
  A: /	B: /	C: /	D: 54.4*	E: /	F: -1.9

In the list so far, these contain a CF3 group:
Short keys: A = RAD54 branch; B = GSIS activator; C = UUG fidelity; D = RAD52 anneal inh; E = PglD inh; F = CASP6 VEID inh
O=C(NNC(=O)c1cc2cc3ccccc3nc2s1)c1cccc(C(F)(F)F)c1
  A: 5.0	B: 75.1*	C: -10.3	D: /	E: 3.0	F: /

OC(CNCCc1ccc(C(F)(F)F)cc1)COC(c1ccccc1)c1ccccc1 (configuration not stated)
  A: 6.8	B: 364.9*	C: -12.3	D: 11.5	E: -6.7	F: 9.4
